Measured values: paper PMC6148290, “Endogenous metabolites of vitamin E limit inflammation by targeting 5-lipoxygenase” (Nature Communications, 2018)

Chains of the proteins cited; added tags and fusions are not shown.
UniProt P18054, whole entry: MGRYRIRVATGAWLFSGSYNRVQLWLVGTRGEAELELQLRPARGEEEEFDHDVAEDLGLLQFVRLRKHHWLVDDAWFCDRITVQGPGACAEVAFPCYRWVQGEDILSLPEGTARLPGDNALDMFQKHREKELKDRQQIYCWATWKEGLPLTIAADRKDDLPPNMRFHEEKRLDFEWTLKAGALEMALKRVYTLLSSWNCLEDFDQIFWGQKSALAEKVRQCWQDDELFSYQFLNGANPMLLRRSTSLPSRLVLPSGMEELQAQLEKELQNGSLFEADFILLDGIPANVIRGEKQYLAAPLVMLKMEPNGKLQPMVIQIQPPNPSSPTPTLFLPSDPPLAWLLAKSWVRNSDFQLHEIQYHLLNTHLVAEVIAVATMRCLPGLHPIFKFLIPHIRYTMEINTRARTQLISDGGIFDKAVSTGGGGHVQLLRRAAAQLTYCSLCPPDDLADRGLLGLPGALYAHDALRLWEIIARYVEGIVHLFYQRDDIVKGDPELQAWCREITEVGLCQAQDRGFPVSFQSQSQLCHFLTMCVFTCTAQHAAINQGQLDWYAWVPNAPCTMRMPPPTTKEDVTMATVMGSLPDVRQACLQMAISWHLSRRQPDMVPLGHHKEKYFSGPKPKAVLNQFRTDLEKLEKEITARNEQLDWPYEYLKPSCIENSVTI

Assays:
[1] = test system: peripheral blood mononuclear cells; experiment: Cell viability of PBMC (MTT assay); format: cell-based, human; conditions: 24 h
15-LO = 15-LO product formation in A23187/AA-activated PMNL; conditions: at 3 µM; mean ± s.e.m., n = 3; n.i. no inhibition
[2] = γ-TE orally given at pharmacological doses; ref Jiang et al., 2007; cited from earlier work
12-LO = 12-LO (Homo sapiens, UniProt P18054); experiment: 12-LO product formation in A23187/AA-activated PMNL; conditions: at 3 µM; mean ± s.e.m., n = 3; n.i. no inhibition

Row | 12-LO product formation/PMNL, residual activity (12-LO) | SMILES | Cell viability/peripheral blood mononuclear cells, residual viability ([1]; at 1 µM) | Cell viability/peripheral blood mononuclear cells, residual viability ([1]; at 10 µM) | 15-LO product formation/PMNL, residual activity (15-LO) | level in rat liver [2] [nM] | level in rat plasma [2] | Cell viability/peripheral blood mononuclear cells, residual viability ([1]; at 1 and 10 µM (one entry for both), n.i. no inhibition)
1 |  | C/C(=C/CC/C(C)=C/CC/C(C)=C/CC[C@]1(C)CCc2cc(O)cc(C)c2O1)CO | n.i. | 73.5 ± 14.4 % of control | 174.6 ± 6.9 % of control |  |  | 
2 | n.i. | C/C(=C\CC/C(C)=C/CC[C@]1(C)CCc2cc(O)c(C)c(C)c2O1)CC/C=C(\C)C(=O)O |  |  | 169.2 ± 4.5 % of control | ≤ 730 | up to 140 nM | n.i.
